{
  "source": "patent US9006205B2",
  "about": "“Antisense oligonucleotides against neutral sphingomyelinase and neutral sphingomyelinase inhibitor GW4869 for degenerative neurological disorders” (Rush University Medical Center, priority 2011, dated 2015)",
  "test_system": "primary human neurons",
  "assay": "MTT metabolism of neurons in astrocyte-neuron trans-well",
  "format": "cell-based",
  "settings": "neurons pretreated with different concentrations of chemical inhibitor",
  "description": "Primary human astrocytes were grown to confluency on inserts. After 24 h of stimulation by the combination of Aβ (1 μM) and IL-Iβ (10 ng/ml), inserts were washed thrice with HBSS and then placed onto the wells containing primary human neurons. Therefore, in this trans-well model, although neurons and astrocytes face each other, they are separable and the effect of soluble factors released from activated astrocytes on neurons can be studied allowing analysis of neuronal and glial populations separately.\nMitochondrial activity was measured with the 3-(4,5-dimethylthiazol-2-yl)-2,5-diphenyltetrazolium bromide (MTT) assay (Sigma). The cells were grown on 24-well culture plates with 500 μl of medium and treated with various reagents according to the experimental design. […]\nPrimary human neurons were incubated with antisense (ASO) and scrambled oligonucleotides (ScO) against N-SMase (A) and A-SMase (FIG. 2B). After 48 h, neurons were analyzed for protein expression of N-SMase and A-SMase. […] After 6 h of treatment with activated astrocytes, apoptotic events in neurons were detected by TUNEL. In FIG. 2D, TUNEL-positive cells were counted manually in four different images of each of three coverslips by three individuals blinded to the experiment. […] Values obtained from the control group served as 100%, and data obtained in other groups were calculated as percent of control accordingly. […]",
  "data": [
    {"compound": "CN(C)CCCN1c2ccccc2CCc2ccccc21", "note": "[imipramine]", "values": [
      {"measurement": "protection from activated astroglia-induced cell death (MTT metabolism)", "result": "but not imipramine"}
    ]}
  ]
}
